Chains of the proteins cited; added tags and fusions are not shown. Residues count along the entry.
UniProt P01586, 27-166 limits assumed: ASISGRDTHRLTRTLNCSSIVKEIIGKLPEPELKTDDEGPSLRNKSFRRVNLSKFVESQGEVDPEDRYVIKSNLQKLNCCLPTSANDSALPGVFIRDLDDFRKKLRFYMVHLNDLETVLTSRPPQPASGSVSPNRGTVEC

In US20020173481A1:

Molecular target: endogenous IL-3 receptor of 32Dcl3 cells
Assay: cell-based or functional assay

Mouse IL-3 (from UniProt P01586 27-166) (ligand)
kinase activity of Bmx in 32Dcl3 cells: 2.2 fold
